Measurements published in patent US4173636A, “Decahydroquinolines, pharmaceutical compositions and methods of use” (Labaz, priority 1975, dated 1979).
Only a part of the results on these compounds is given; other tests are left out.

Test system: arterial pressure
Assay: Antihypertensive action in hypertensive rats (OKAMOTO and AOKI), intragastric
Settings: conclusion in words

Structure (SMILES): CCOC(=O)N(c1ccccc1)C1CCN(CCCC(=O)c2ccc(F)cc2)[C@@H]2CCCC[C@@H]12 (stereo partly shown)
- antihypertensive action: powerful antihypertensive action
